Yeast mating assay B: variants of the scFv Ab-14

Antigen: PDVDLGDISGINAS, a 14-residue peptide of the SARS-CoV-2 spike HR2 region.

Each scFv is VH, a (GGGGS)3 linker, VL, as in the parent Ab-14, and differs from it in the CDRs of the heavy chain only.
VH: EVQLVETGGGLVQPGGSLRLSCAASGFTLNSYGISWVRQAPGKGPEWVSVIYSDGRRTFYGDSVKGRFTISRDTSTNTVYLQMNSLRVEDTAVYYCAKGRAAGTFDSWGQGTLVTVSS
VL: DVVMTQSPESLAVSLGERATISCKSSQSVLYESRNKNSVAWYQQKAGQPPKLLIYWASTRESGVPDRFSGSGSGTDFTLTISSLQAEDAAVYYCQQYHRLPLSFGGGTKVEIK

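The parent was found by panning a naive human phage display library on the peptide. The variants were designed computationally from a first round of random CDR variants and then made and measured. Their group label is 14H_En_Gen (En: ensemble of fine-tuned language models; Gen: genetic algorithm). Affinity was read by AlphaSeq, a pooled yeast mating assay with surface-displayed partners. Pairs that bind mate more often; barcode pairs of the diploids are counted by sequencing. A regression on co-assayed BCL2-family reference pairs converts the normalised counts of each replicate to an apparent Kd. Mating was done six times.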

Variants are written as CDR1, CDR2 and CDR3 of the heavy chain (limits as in the source). Parent: GFTLNSYGIS, VIYSDGRRTFYGDSVK, GRAAGTFDS. Affinities are written as log10 Kd with Kd in nM; a lower number is a better binder. The mean shown is taken over the replicates in which the pair was detected. A pair that was not seen in that replicate is written "nd"; this usually means weak binding, but a binder can also be missed. As a blank, each scFv also met three strains without target: over all heavy chain designs, 1% of these pairings were detected, typically at 2.08 and seldom below 0.84. Also given: how often the same scFv was detected with the empty control strains, with their mean in brackets. In the paper, a design with two or fewer of six values counts as a poor binder. The parent sequence was in this pool as ten entries: three were never detected, three once, and four in most replicates, with averages from 0.34 to 2.37. A sequence measured in both rounds can read differently, since the two assays cover different ranges.

CDR-H1,CDR-H2,CDR-H3,log10 Kd (nM) by replicate,"log10 Kd (nM), mean",signal with controls
GFDLNEYGIS,VIYADGMRTAYADDVK,GQTAGTFDI,-0.01 / -0.33 / -0.34 / -0.05 / -0.02 / -0.10,-0.14,0 of 18
GFDLNEYGIS,VIYADGMRKAYADSVK,GANAGTFDV,-0.63 / -0.58 / -0.68 / -0.80 / -0.58 / -0.65,-0.65,0 of 18
GFDLNEYGIS,VIYADGMRTAYQDSVK,GNVAGTFDI,-0.12 / -0.03 / 0.11 / 0.04 / -0.13 / -0.06,-0.03,1 of 18 (2.16)
GFDLNEYGIS,VIYADGVRTAYADDVK,GQVAGTFDI,-0.28 / -0.55 / -0.30 / -0.71 / -0.59 / -0.11,-0.42,0 of 18
GFDLNEYGIS,VIYADGMRQAYADDVK,GNNAGTFDV,-0.10 / -0.33 / -0.69 / -0.57 / -0.44 / -0.41,-0.42,0 of 18
GFDLDEYGIS,VIYADGMRTAYADKVK,GENAGTFDV,0.43 / -0.36 / -0.11 / 0.23 / 0.34 / 0.00,0.09,1 of 18 (2.79)
GFNLDEYGIS,VIYADGMRTAYADSVK,GNNAGTFDV,0.24 / -0.32 / -0.74 / 0.47 / -0.73 / -0.34,-0.24,0 of 18
GFDLNEYGIS,VIYADGMRTAYSDSVK,GGNAGTFDM,-1.00 / -0.63 / -0.76 / -0.64 / -1.08 / -0.53,-0.77,0 of 18
GFDLNEYGIS,VIYADGQRTAYSDSVK,GEVAGTFDI,-0.27 / -0.45 / -0.15 / -0.41 / -0.24 / -0.27,-0.30,0 of 18
GFNLDEYGIS,VIYADGSRTAYADSVK,GNVAGTFDV,-0.61 / -0.39 / 0.03 / -0.74 / -0.23 / -0.34,-0.38,0 of 18
GFDLDEYGIS,VIYADGSRTAYSDSVK,GETAGTFDV,0.45 / -0.14 / -0.37 / -0.40 / -0.13 / -0.28,-0.14,0 of 18
GFDLNEYGIS,VIYADGVRTAYADDVK,GNNAGTFDI,0.51 / 0.61 / 0.11 / 0.36 / 0.15 / 0.21,0.32,0 of 18
GFDLNEYGIS,VIYADGRRTAYVDSVK,GENAGTFDI,-0.06 / -0.11 / 0.59 / 0.14 / -0.52 / -0.27,-0.04,0 of 18
GFDLEEYGIS,VIYADGKRTAYADSVK,GNQAGTFDV,-0.41 / -0.45 / -0.42 / -0.65 / -0.74 / -0.40,-0.51,1 of 18 (2.24)
GFDLNEYGIS,VIYADGMRTAYADDVK,GQNAGTFDM,nd / nd / nd / nd / nd / 0.96,0.96,0 of 18
GFDLNEYGIS,VIYADGMRTAYADSVK,GANAGTFDQ,-0.78 / -0.85 / -0.76 / -0.73 / -0.53 / -0.54,-0.70,0 of 18
GFDLNEYGIS,VIYADGMRKAYADSVK,GSNAGTFDV,-0.01 / -0.72 / -0.25 / -0.24 / -0.48 / 0.02,-0.28,0 of 18
GFDLNEYGIS,VIYADGMRTAYSDKVK,GNTAGTFDV,0.06 / -0.47 / -0.07 / -0.45 / -0.20 / -0.30,-0.24,0 of 18
GFDLNEYGIS,VIYADGVRKAYVDSVK,GNNAGTFDV,-0.68 / -1.09 / -0.70 / -1.32 / -1.43 / -1.52,-1.12,0 of 18
GFDLEEYGIS,VIYADGMRTAYSDSVK,GNTAGTFDV,-0.75 / -0.52 / -0.64 / -0.98 / -0.84 / -0.88,-0.77,0 of 18
GFDLNEYGIS,VIYADGMRKVYADSVK,GQNAGTFDV,0.68 / -0.02 / 0.95 / 0.19 / -0.67 / 0.19,0.22,0 of 18
GFDLNEYGIS,VIYADGVRTAYADSVK,GNTAGTFDI,1.77 / 0.08 / -1.36 / -0.98 / -0.08 / -0.50,-0.18,0 of 18
GFDLDEYGIS,VIYADGKRTAYTDSVK,GNVAGTFDT,-0.04 / -0.32 / -0.21 / -0.43 / -0.53 / -0.22,-0.29,0 of 18
GFDLDEYGIS,VIYADGKRTAYIDSVK,GNEAGTFDV,-0.02 / -0.01 / -0.09 / -0.34 / -0.58 / -0.24,-0.21,0 of 18
GFDLDEYGIS,VIYADGMRTAYTDSVK,GNNAGTFDM,0.17 / 0.07 / -0.11 / -0.27 / -0.06 / 0.08,-0.02,0 of 18
GFDLNEYGIS,VIYADGMRKAYADSVK,GETAGTFDQ,0.04 / -0.25 / -0.78 / -1.13 / -0.94 / -0.30,-0.56,0 of 18
GFDLNEYGIS,VIYADGMRTFYADSVK,GGNAGTFDV,-0.49 / -0.27 / -0.34 / -0.66 / -0.66 / -0.27,-0.45,0 of 18
GFDLNEYGIS,VIYADGMRTAYADKVK,GNVAGTFDI,-0.67 / -0.29 / -0.27 / -0.49 / -0.59 / -0.40,-0.45,0 of 18
GFDLNEYGIS,VIYADGLRTAYADDVK,GNTAGTFDV,-0.14 / -0.68 / -0.64 / -0.56 / -0.65 / -0.47,-0.52,1 of 18 (1.68)
GFDLDEYGIS,VIYADGVRTAYSDSVK,GEVAGTFDL,-0.70 / -0.13 / -0.58 / -0.68 / -0.58 / -0.19,-0.48,0 of 18
GFDLDEYGIS,VIYADGSRTAYADSVK,GENAGTFDV,0.15 / -0.58 / -0.35 / -0.38 / 0.08 / -0.32,-0.23,0 of 18
GFDLDEYGIS,VIYADGVRTAYVDSVK,GNQAGTFDV,0.26 / -0.13 / 0.27 / 0.29 / 0.60 / 0.03,0.22,1 of 18 (2.77)
GFDLDEYGIS,VIYADGKRTYYADSVK,GNTAGTFDV,-0.31 / -0.52 / -0.51 / -0.58 / -0.57 / -0.47,-0.49,0 of 18
GFDLNEYGIS,VIYADGMRTFYADDVK,GENAGTFDQ,-0.78 / -0.64 / -0.88 / -0.68 / -0.44 / -0.81,-0.71,0 of 18
GFDLSEYGIS,VIYADGMRTAYADSVK,GNQAGTFDV,-0.42 / -0.09 / -0.61 / -0.61 / 0.46 / -0.49,-0.29,1 of 18 (1.63)
GFDLNEYGIS,VIYADGQRTYYADSVK,GEVAGTFDL,0.05 / -0.06 / -0.27 / 0.19 / 0.25 / 0.16,0.05,1 of 18 (0.45)
GFDLDEYGIS,VIYADGMRTAYADSVK,GSNAGTFDT,0.40 / 0.77 / -0.25 / 0.33 / -0.15 / 0.08,0.20,0 of 18
GFDLEDYGIS,VIYADGMRTAYADSVK,GEVAGTFDL,-0.02 / 0.35 / 0.01 / -0.50 / -0.13 / 0.02,-0.04,0 of 18
GFDLNEYGIS,VIYADGMRKAYADSVK,GNQAGTFDM,0.22 / nd / -0.55 / -0.15 / -0.34 / -0.23,-0.21,0 of 18
GFDLNEYGIS,VIYADGKRTAYANSVK,GQVAGTFDV,0.52 / -0.50 / 0.04 / 0.25 / 0.32 / 1.62,0.37,0 of 18
GFDLNEYGIS,VIYADGSRTAYADSVK,GENAGTFDT,-0.04 / -0.52 / -0.47 / -0.36 / -0.22 / -0.12,-0.29,1 of 18 (2.74)
GFDLNEYGIS,VIYADGVRTAYSDNVK,GETAGTFDV,-0.13 / -0.11 / -0.88 / -0.51 / -0.35 / -1.00,-0.50,0 of 18
GFDLNEYGIS,VIYADGKRTSYIDSVK,GNVAGTFDV,-0.09 / -0.39 / -0.12 / -0.23 / -0.54 / 0.04,-0.22,0 of 18

From the AlphaSeq antibody data of Li et al. 2023 (doi:10.1038/s41467-023-39022-2), copy in the FLAb collection.